Target: BTK (Homo sapiens, UniProt Q06187)
Test: In vitro BTK kinase assay: BTK-POLYGAT-LS ASSAY
Conditions: read-out: IC50 (10 uM ATP), ATP 10 uM

Sequences of proteins named here, by UniProt entry; tags and fusion partners are left off.
UniProt Q06187, whole entry: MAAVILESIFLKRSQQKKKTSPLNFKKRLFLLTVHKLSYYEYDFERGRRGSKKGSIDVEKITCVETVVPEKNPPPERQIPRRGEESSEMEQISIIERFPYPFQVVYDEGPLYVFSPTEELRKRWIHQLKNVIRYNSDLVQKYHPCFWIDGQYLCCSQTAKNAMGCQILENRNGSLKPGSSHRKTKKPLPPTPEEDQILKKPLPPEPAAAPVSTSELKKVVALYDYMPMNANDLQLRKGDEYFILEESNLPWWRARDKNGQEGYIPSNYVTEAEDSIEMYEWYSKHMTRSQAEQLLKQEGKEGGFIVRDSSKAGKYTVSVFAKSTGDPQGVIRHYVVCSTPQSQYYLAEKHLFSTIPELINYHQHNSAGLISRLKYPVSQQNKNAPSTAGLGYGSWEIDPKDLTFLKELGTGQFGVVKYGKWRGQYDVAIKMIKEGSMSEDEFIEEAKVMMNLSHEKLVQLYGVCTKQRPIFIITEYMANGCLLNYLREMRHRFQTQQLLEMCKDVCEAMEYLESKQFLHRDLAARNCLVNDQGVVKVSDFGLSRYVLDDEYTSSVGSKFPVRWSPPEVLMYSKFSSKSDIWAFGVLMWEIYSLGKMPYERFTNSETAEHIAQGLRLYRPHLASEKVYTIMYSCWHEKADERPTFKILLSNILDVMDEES

An IC50 of less than 100 nM was found for `C[C@H]1C[C@@H](NC(=O)[C@H](Nc2cc(F)cc(Cl)c2)C2CC2)CN(c2ncnc3[nH]ncc23)C1` in this work.

— patent US9029359B2, “Heteroaryl Btk inhibitors” (Biogen Idec MA, Inc., priority 2009, dated 2015)
